High-throughput results: PubChem, National Center for Advancing Translational Sciences (NCATS)
Compounds with a hit are over-represented: about 1.7% of the library has one in this group of screens.
GLP1R inv ag – GLP-1 receptor (human) inverse agonism; AID 624417; 410,000 compounds, 1.6% hits; HEK293 GLP-1R CRE-luciferase, luminescence, 24 h; GLP-1R form is constitutively active; Potency, µM (top dose mostly 38.3 µM), for inactives: top-dose activity change, negative = inhibition, actives largely listed as inhibitors; also: potency is read from the fitted curve at half-maximal effect; % is scaled to controls: 0 for no effect and ±100 for the full control effect; nearly all actives have a fitted effect of over 55% in size
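Luminescence readout: a drop in cAMP-driven luciferase signal flags inverse agonism at a constitutively active GLP-1R stably expressed in HEK293. Compound exposure lasted 24 hr at 37 deg C, 5% CO2.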
HEK293 tox – cytotoxicity counter-screen for GLP-1 receptor inverse agonists. 410,000 compounds, 0.13% hits. AID 624418. HEK293 cAMP-luciferase reporter cells, luminescence, 24 h. Potency, µM (doses to about 38.3 µM), inactives show at the top dose activity change, negative = inhibition, usual class: inhibitors;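 also: loss of luciferase light is scored as toxicity; potency is read from the fitted curve at half-maximal effect; % is scaled to controls: 0 for no effect and ±100 for the full control effect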
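MLSMR compounds, 24 hr on cells at 37 deg C/5% CO2; luminescence after luciferase reagent (12 min RT). Inhibition counted as the undesired cytotoxic outcome.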
miR-21 reporter – raises the signal of a miR-21 reporter; HeLa miR-21 FLuc reporter, luciferase, 48 h; Potency, µM (series often up to 38.3 µM), inactives show top-dose reporter change, positive = more light; 340,000 tested, under 10 active; active = well fitted rising curve with a large enough effect; inconclusive = small, poorly fitted or top-dose-only effect; inactive = no such curve, though single readings can be large or run the other way;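 also: % of control where 0% means no effect; miR-21 action dims this reporter so a rising signal means less miR-21 action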
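HeLa cells stably expressing CMV-driven firefly luciferase with a downstream miR-21 binding sequence, endogenously expressing miR-21, were treated with titrations (up to about 40uM final) for 48 hours at 37 degree Celsius. Luciferase luminescence was read after lysis.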
PTHR1 ag – agonists of human PTHR1 parathyroid hormone receptor | 410,000 compounds, 0.075% hits | HEK293 GP2 PTHR1 cells, GloSensor cAMP luminescence, 1 h | Q03431 | Potency, µM (titrated, usually from 115 µM), without a hit: at the highest dose activation, most hits filed as activators; also: potency is read from the fitted curve at half-maximal effect; nearly all actives have a fitted effect of over 55% in size
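HEK-293-derived GP2 cells expressing PTHR1 and a GloSensor cAMP reporter, 3,000/well, plated overnight, given luciferin plus IBMX (each 0.5 mM as added) for 1 h at 37 °C, then compound for 1 h at 37 °C. Luminescence was read after 15 min at room temperature.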
GLP1R ag – agonists of human GLP-1 receptor; P43220; HEK293 GLP-1R CRE-luciferase, luminescence, 4-6 h; cells express a hypersensitive GLP-1R form; Potency, µM (top dose mostly 45.6 µM), for inactives: at the highest dose activation, hits mostly activators; 380,000 compounds, 0.007% hits; AID 624172; also: potency is read from the fitted curve at half-maximal effect; % of control where 0% means no effect
Pin1 inhibitor – human Pin1 inhibition; Pin1 FP peptide displacement, HiFluor488, 10 min; Potency, µM (top dose mostly 115 µM), for inactives: at the top dose activity, negative = inhibition, hits mostly inhibitors; 390,000 compounds, 0.009% hits; AID 504891; active = well fitted inhibition curve with a large enough effect in the polarisation, with a control signal flat, not every such curve was filed as active; inconclusive = small, poorly fitted or top-dose-only effect, or effect the other way, or a change in a side signal; inactive = no such curve, though single readings can be large or run the other way; the % refers to the polarisation; also: potency is read from the fitted curve at half-maximal effect; % is scaled to controls: 0 for no effect and ±100 for the full control effect
An asterisk follows results filed as active; i = inactive; ? = inconclusive; . = no result; [ ] = remark or other dose. Unless noted, calls follow the shape of the dose curve; as a rule, active = well fitted curve in the direction sought with a large enough effect; inconclusive = small, poorly fitted or top-dose-only effect, or another doubt; inactive = no such curve, though single readings can be large; an effect the other way counts as inactive or inconclusive.

Labels used below: A = GLP1R inv ag; B = HEK293 tox; C = miR-21 reporter; D = PTHR1 ag; E = GLP1R ag; F = Pin1 inhibitor
SMILES: COc1ccccc1N1CCN(S(=O)(=O)CCNC(=O)COc2ccc(C(C)C)cc2)CC1
  A: ?; B: 1.0%; C: 15.2%; D: -32.6%; E: .; F: 1.0%

SMILES: CCN(CC)CCCN=Cc1c(O)n(Cc2ccccc2)c(=O)c2ccccc12
  A: 12.6µM*; B: -9.7%; C: -18.1%; D: i; E: 14.2%; F: -1.0%

SMILES: COc1ccc(/C=C/C(=O)N(CC(C)C)CC(C)C)cc1Br
  A: 11.2µM*; B: -1.8%; C: -4.8%; D: i; E: 16.0%; F: 5.1%

SMILES: CC(C)(C)OC(=O)N1CCN(c2nc(-c3cccs3)nc3ccccc23)CC1
  A: .; B: .; C: .; D: .; E: .; F: -2.6%

SMILES: CCc1ccc(CN2CCC(Oc3ccc(C(=O)N4CCCCC4)cc3)CC2)cc1
  A: ?; B: ?; C: 10.7%; D: -5.3%; E: 8.0%; F: 2.1%

SMILES: CCc1ccc(CN2CCC(Oc3ccc(C(=O)N4CCCC4)cc3)CC2)cc1
  A: 7.94µM*; B: ?; C: -2.1%; D: -7.8%; E: -8.4%; F: -4.3%

SMILES: O=C(c1ccc(OC2CCN(C/C=C/c3ccc(F)cc3)CC2)cc1)N1CCCC1
  A: 3.16µM*; B: -22.2%; C: 12.9%; D: -63.3%; E: 4.2%; F: -0.2%

SMILES: COc1ccc(CNC(=O)c2cnn(-c3ccc(F)cc3)c2-n2cccc2)cc1
  A: -23.1%; B: -3.8%; C: ?; D: -24.2%; E: 2.0%; F: 0.3%

SMILES: CC(CNC(=O)c1cnn(-c2ccc(F)cc2)c1-n1cccc1)c1ccccc1 (stereo not given)
  A: 10µM*; B: 2.2%; C: 27.3%; D: -86.1%; E: 10.7%; F: ?

SMILES: Oc1c(CN2CCN(c3ccccn3)CC2)cc(Cl)c2cccnc12
  A: 0.501µM*; B: ?; C: 21.5%; D: i; E: 7.5%; F: 5.4%

SMILES: COc1ccccc1N1CCN(Cc2cc(Br)c(O)c3ncccc23)CC1
  A: ?; B: 1.12µM*; C: ?; D: 3.0%; E: -6.8%; F: -7.6%

SMILES: OCCN1CCN(Cc2cc(Cl)c3cccnc3c2O)CC1
  A: ?; B: ?; C: 25.9%; D: -8.2%; E: -8.0%; F: 0.8%

SMILES: CCOCc1cc(CN2CCN(c3ccccc3OC)CC2)c(O)c2ncccc12
  A: 5.01µM*; B: -23.8%; C: -6.2%; D: i; E: .; F: -4.1%

SMILES: CN1CCN(c2cccc(CNc3nn4c(=O)c5ccccc5nc4s3)c2)CC1
  A: .; B: .; C: .; D: .; E: .; F: -36.1%

SMILES: Cc1ccc(C(=O)C=CC=Cc2ccccc2)cc1
  A: -7.6%; B: 6.3%; C: .; D: -34.7%; E: -0.7%; F: .

SMILES: Cc1ccc(C(=O)C(C(=O)/C=C/c2ccccc2)=C2SCCCS2)cc1
  A: 2µM*; B: ?; C: ?; D: -10.2%[57.5 µM]; E: -4.9%; F: 1.1%

SMILES: CCCN1/C(=C2/SC(=S)N(CC)C2=O)C=Cc2ccccc21
  A: ?; B: ?; C: 0.1%; D: -11.2%[57.5 µM]; E: -4.8%; F: -1.0%

SMILES: CN1C(=O)/C(=C2/C=Cc3ccccc3N2CCCS(=O)(=O)O)SC1=S
  A: -2.3%; B: 8.91µM*; C: -4.0%; D: i; E: -4.6%; F: ?

SMILES: Cc1cc(Nc2cccc(Cl)c2)nc2ccc(NC(=O)Cc3cccc(C(F)(F)F)c3)cc12
  A: 3.98µM*; B: ?; C: ?; D: -12.2%; E: -9.9%; F: 9.0%

SMILES: COc1ccc(CC(=O)Nc2ccc3nc(Nc4ccc(OC)cc4)cc(C)c3c2)cc1
  A: -22.8%; B: -6.4%; C: -12.2%; D: -4.5%; E: -4.1%; F: 11.5%

SMILES: CCOc1ccc(C(=O)Nc2ccc3nc(Nc4cccc(C(F)(F)F)c4)cc(C)c3c2)cc1OCC
  A: -5.9%; B: 1.4%; C: -2.1%; D: i; E: -0.2%; F: 13.8%

SMILES: Cc1cc(Nc2cccc(C(F)(F)F)c2)nc2ccc(NC(=O)c3cccc(Cl)c3)cc12
  A: 2.82µM*; B: ?; C: 24.6%; D: -8.2%; E: -16.5%; F: 2.2%

SMILES: COc1ccc(Nc2cc(C)c3cc(NC(=O)COc4cccc(C)c4)ccc3n2)cc1
  A: 10µM*; B: -12.0%; C: ?; D: -33.5%; E: -4.9%; F: 23.1%

SMILES: COc1ccc(CC(=O)Nc2ccc3nc(Nc4cccc(Cl)c4)cc(C)c3c2)cc1OC
  A: ?; B: -1.9%; C: ?; D: i; E: -6.6%; F: 11.5%

SMILES: Cc1cc(Nc2cccc(Cl)c2)nc2ccc(NC(=O)Cc3ccc(Cl)cc3)cc12
  A: 5.62µM*; B: -24.1%; C: ?; D: -10.9%; E: -6.2%; F: 19.6%

SMILES: Cc1cc(Nc2cccc(Cl)c2)nc2ccc(NC(=O)Cc3c(F)cccc3Cl)cc12
  A: ?; B: -12.1%; C: 11.2%; D: i; E: -3.5%; F: 32.7%

SMILES: Cc1ccc(S(=O)(=O)N2CCN(c3nc(-c4ccco4)nc4ccccc34)CC2)cc1
  A: .; B: .; C: .; D: .; E: .; F: 29.9%

SMILES: Cc1c(F)c(N2CCNC(C)C2)cc2c1c(=O)c(C(=O)O)cn2C1CC1 (stereo not given)
  A: .; B: .; C: .; D: .; E: 9.8%; F: .

SMILES: COc1ccc2sc(N(Cc3cccnc3)C(=O)c3cccs3)nc2c1
  A: -11.8%; B: -4.8%; C: 8.3%; D: -20.2%; E: .; F: 0.5%

SMILES: COCCCn1c(SCC(=O)OC2CCCCC2)nnc1-c1cccs1
  A: -8.2%; B: 6.9%; C: -4.4%; D: 0.282µM*; E: 0.5%; F: 4.8%

Looked up by structure from the list above, two records:
Labels used below: A = GLP1R inv ag; B = HEK293 tox; C = miR-21 reporter; D = PTHR1 ag; E = GLP1R ag; F = Pin1 inhibitor
SMILES: COc1ccc(CC(=O)Nc2ccc3nc(Nc4cccc(Cl)c4)cc(C)c3c2)cc1OC
  A: ?; B: -1.9%; C: ?; D: i; E: -6.6%; F: 11.5%

SMILES: COc1ccc(CC(=O)Nc2ccc3nc(Nc4ccc(OC)cc4)cc(C)c3c2)cc1
  A: -22.8%; B: -6.4%; C: -12.2%; D: -4.5%; E: -4.1%; F: 11.5%

(cont.)
Labels used below: A = GLP1R inv ag; B = HEK293 tox; C = miR-21 reporter; D = PTHR1 ag; E = GLP1R ag; F = Pin1 inhibitor
SMILES: COc1cccc(C)c1NC(=O)C(OC(=O)CNC(=O)c1ccccc1)c1ccccc1 (stereo not given)
  A: .; B: .; C: .; D: .; E: .; F: 4.9%

SMILES: COc1cc2c(N3CCN(C(=O)Nc4ccc(OC(C)C)cc4)CC3)ncnc2cc1OCCCN1CCCCC1
  A: .; B: .; C: .; D: .; E: 15.0%; F: .

SMILES: O/N=C/c1ccc(OCc2ccccc2)c(Br)c1
  A: 6.0%; B: 2.2%; C: -87.1%; D: -31.3%; E: 21.8%; F: 4.2%

SMILES: O/N=C/c1cc(Br)cc(Br)c1OCc1ccccc1
  A: 10µM*; B: -5.5%; C: -14.4%; D: i; E: 5.2%; F: -2.7%

SMILES: COc1ccc(/C=C2/CCC(CN3CCOCC3)C2=O)cc1 (stereo not given)
  A: 5.62µM*; B: 5.01µM*; C: .; D: -38.2%; E: -17.1%; F: 7.2%

SMILES: Cc1cc(NC(=O)c2cccn2-c2nnc(N3CCCCC3)s2)ccc1Br
  A: 10µM*; B: -10.8%; C: -9.3%; D: -27.8%; E: .; F: 26.0%

SMILES: COc1ccccc1CCNC(=O)C(C)Sc1nc(-c2ccccc2)cc(C(F)(F)F)n1 (stereo not given)
  A: 13.3%; B: -3.0%; C: -0.2%; D: -15.1%; E: -0.8%; F: 1.3%

SMILES: Cc1ccc(NC(=S)/C(C#N)=C2/Nc3ccccc3S2)cc1
  A: 3.98µM*; B: ?; C: .; D: -18.8%; E: -2.5%; F: .

SMILES: Cc1ccc(C)c(C(Nc2ccccc2)c2ccc3ccc(C)nc3c2O)c1 (stereo not given)
  A: 5.62µM*; B: 11.6%; C: .; D: -26.3%; E: .; F: .

SMILES: O=c1cnn([C@@H]2O[C@H](CO)[C@@H](O)[C@H]2O)c(=O)[nH]1
  A: 1µM*; B: 4.4%; C: ?; D: 9.6%; E: -5.8%; F: 2.4%

SMILES: Cc1cc2ncn(-c3ncnc4sc(C)c(C)c34)c2cc1C
  A: 7.08µM*; B: -1.6%; C: -23.7%; D: -2.7%[57.5 µM]; E: 5.4%; F: -1.4%

SMILES: Cc1cc2ncn(-c3ncnc4scc(-c5ccccc5)c34)c2cc1C
  A: ?; B: -3.2%; C: -1.5%; D: i; E: -2.5%; F: -0.6%

SMILES: COc1ccc(NC(=O)c2cc3ccccc3o2)c(OC)c1
  A: 17.4%; B: -10.0%; C: -64.3%; D: -20.0%; E: .; F: 4.2%

SMILES: COc1ccc(-c2nc3ccccc3n2Cc2ccccc2)cc1COc1ccc(NC(C)=O)cc1
  A: .; B: .; C: .; D: .; E: .; F: 14.0%

SMILES: CCN1CCN(c2ccc(Nc3ccnc4ccccc34)cc2)CC1
  A: 3.55µM*; B: -16.5%; C: .; D: ?; E: -4.6%; F: 1.4%

Sorted by molecular weight (smallest number first): part of the list above
Labels used below: A = GLP1R inv ag; B = HEK293 tox; C = miR-21 reporter; D = PTHR1 ag; E = GLP1R ag; F = Pin1 inhibitor
SMILES: Cc1cc2ncn(-c3ncnc4sc(C)c(C)c34)c2cc1C
  A: 7.08µM*; B: -1.6%; C: -23.7%; D: -2.7%[57.5 µM]; E: 5.4%; F: -1.4%

SMILES: Cc1ccc(NC(=S)/C(C#N)=C2/Nc3ccccc3S2)cc1
  A: 3.98µM*; B: ?; C: .; D: -18.8%; E: -2.5%; F: .

SMILES: Cc1cc2ncn(-c3ncnc4scc(-c5ccccc5)c34)c2cc1C
  A: ?; B: -3.2%; C: -1.5%; D: i; E: -2.5%; F: -0.6%
